Eleven molecules from ChEMBL document CHEMBL1139469, “Synthesis and 3D QSAR of new pyrazolo[3,4-b]pyridines: potent and selective inhibitors of A1 adenosine receptors” (J Med Chem, 2005) can be followed below.

This assay concerns Adenosine receptor A2a (Bos taurus). Kind of assay: Displacement of [3HCGS21680 from adenosine A2A receptor in bovine cerebral cortical membranes at 10 uM.

For `CCOC(=O)c1cnc2c(cnn2CC(Cl)c2ccccc2)c1NCCc1ccc(C)cc1` (stereo unspecified), the inhibition (commonly the percentage by which the read-out fell short of the control) is 41%. Consider `CCOC(=O)c1cnc2c(cnn2CC(Cl)c2ccccc2)c1NCCc1ccccc1F` (stereo unspecified), for which the inhibition worked out at 36%. To `CC(C)OC(=O)c1cnc2c(cnn2CC(Cl)c2ccccc2)c1NCc1ccccc1` (stereo unspecified) belongs 0%; to `COC(=O)c1cnc2c(cnn2CC(Cl)c2ccccc2)c1NCCc1ccc(OC)cc1` (stereo unspecified), 29%; to `CC(C)OC(=O)c1cnc2c(cnn2CC(Cl)c2ccccc2)c1N1CCOCC1` (stereo unspecified), 16%. With `CCCOC(=O)c1cnc2c(cnn2CC(Cl)c2ccccc2)c1NCc1ccccc1` (stereo unspecified), the inhibition turned out to be 0%. To `CCOC(=O)c1cnc2c(cnn2CC(Cl)c2ccccc2)c1NCCc1cccc(Cl)c1` (stereo unspecified) belongs 21%; to `CCOC(=O)c1cnc2c(cnn2CC(Cl)c2ccccc2)c1NCCc1ccccc1Cl` (stereo unspecified), 0%. To `COc1ccc(CCNc2c(C(=O)OC(C)C)cnc3c2cnn3CC(Cl)c2ccccc2)cc1` (stereo unspecified) belongs 34%; to `CCOC(=O)c1cnc2c(cnn2CC(Cl)c2ccccc2)c1NCCc1ccc(OC)cc1` (stereo unspecified), 53%. To `COC(=O)c1cnc2c(cnn2CC(Cl)c2ccccc2)c1NC1CC1` (stereo unspecified) belongs 52%.
